Laboratory results as given in PubChem BioAssay AID823 (SRMLSC, 2007).
The list shows a part of the results, in another mix than the full data. Inconclusive results are not listed. Activity calls are given as the source filed them.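 How the source made its calls: active means cell viability at or below a set limit in both duplicate runs, the limit being the all-compound median minus 4 SD (cut at about 23% in these data, passing the limit was not always enough); inconclusive means no clear call, values can overlap the other calls; inactive means the rest.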

assay: growth suppression of beta-catenin knockout HCT116, pilot screen, human colon tumor cells (AID 823); settings: CellTiter-Glo, 60 h, at 10 µM, hits give low values;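 further: 0% = wells killed by 20 µM Hyamine and 100% = untreated DMSO cell wells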

SMILES	viability
CP(=O)(Nc1ccc2c(c1)OCCO2)Oc1ccccc1 (stereo not given)	inactive: 98%
CP(=O)(Oc1ccccc1)N1CCOC1=O (stereo not given)	inactive: 102%
CP(=O)(NC(=O)Nc1ccccc1)Oc1ccccc1 (stereo not given)	inactive: 94.7%
Cc1ccc(NP(C)(=O)Oc2ccccc2)c(C)c1 (stereo not given)	inactive: 101%
Cc1ccc(C)c(NP(C)(=O)Oc2ccccc2)c1 (stereo not given)	inactive: 98.2%
